Laboratory results reported in patent US20260124309A1, “STAT6 DEGRADERS AND USES THEREOF” (Kymera Therapeutics, Inc., priority 2023, published 2026).

Sequences of proteins named here, by UniProt entry; tags and fusion partners are left off. Residues count along the entry.
UniProt P42226, whole entry: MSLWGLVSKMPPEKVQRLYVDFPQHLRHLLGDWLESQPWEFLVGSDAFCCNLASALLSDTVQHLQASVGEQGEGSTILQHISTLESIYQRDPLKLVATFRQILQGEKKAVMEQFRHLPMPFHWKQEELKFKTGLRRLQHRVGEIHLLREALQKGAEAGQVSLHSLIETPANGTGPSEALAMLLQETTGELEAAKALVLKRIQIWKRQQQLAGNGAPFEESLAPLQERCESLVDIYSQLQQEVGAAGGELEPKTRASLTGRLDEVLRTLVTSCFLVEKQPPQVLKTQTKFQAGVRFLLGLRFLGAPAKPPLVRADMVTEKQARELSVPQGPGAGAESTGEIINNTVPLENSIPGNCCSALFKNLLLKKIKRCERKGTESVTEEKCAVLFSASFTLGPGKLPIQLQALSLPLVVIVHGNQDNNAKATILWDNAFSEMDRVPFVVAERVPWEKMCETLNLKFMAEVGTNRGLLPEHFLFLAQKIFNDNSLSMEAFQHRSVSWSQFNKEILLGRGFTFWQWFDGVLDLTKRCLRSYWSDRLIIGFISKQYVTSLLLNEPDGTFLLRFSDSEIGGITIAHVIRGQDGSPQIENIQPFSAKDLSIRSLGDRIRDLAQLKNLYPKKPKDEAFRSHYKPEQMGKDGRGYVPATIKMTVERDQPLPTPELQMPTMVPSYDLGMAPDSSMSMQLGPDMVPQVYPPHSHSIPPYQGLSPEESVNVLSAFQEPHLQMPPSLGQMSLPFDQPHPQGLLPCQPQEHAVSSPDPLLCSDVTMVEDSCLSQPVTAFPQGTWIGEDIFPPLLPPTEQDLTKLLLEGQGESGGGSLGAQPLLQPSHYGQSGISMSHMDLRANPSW
UniProt P42226, 123-632 limits assumed: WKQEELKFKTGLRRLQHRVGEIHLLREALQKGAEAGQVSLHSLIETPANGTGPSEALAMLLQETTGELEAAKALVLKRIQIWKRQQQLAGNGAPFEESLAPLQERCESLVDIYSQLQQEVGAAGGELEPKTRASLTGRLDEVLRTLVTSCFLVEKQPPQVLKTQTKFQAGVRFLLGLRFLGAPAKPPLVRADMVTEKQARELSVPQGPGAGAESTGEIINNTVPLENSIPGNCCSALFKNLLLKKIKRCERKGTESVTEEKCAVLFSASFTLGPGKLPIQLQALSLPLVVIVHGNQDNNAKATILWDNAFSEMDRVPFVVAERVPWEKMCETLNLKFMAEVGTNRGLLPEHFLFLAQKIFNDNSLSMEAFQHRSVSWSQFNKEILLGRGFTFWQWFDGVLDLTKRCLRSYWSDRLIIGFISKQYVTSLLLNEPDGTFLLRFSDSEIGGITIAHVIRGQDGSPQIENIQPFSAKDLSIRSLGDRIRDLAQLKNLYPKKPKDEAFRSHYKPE

What was measured:
[1] = target: STAT6-HiBiT (Homo sapiens, UniProt P42226); assay: STAT6 HiBiT degradation in A549 (STAT6-HiBiT) cells; conditions: for DC50: read-out: STAT6 HiBiT degradation DC50 (nM) 24 h
Protocol: Degradation of STAT6 in endogenously tagged STAT6-HiBiT A549 cells was quantitatively measured using the Nano-Glo HiBiT Lytic Detection System (Promega, 3040). A549 (STAT6-HiBiT) cells were seeded in 384-well plates with a density of 1.25k cells per well in 20 μl fresh media. Compounds were then added to the assay plates using the Apricot S3 with a final top concentration of up to 10 uM in a 4-fold dilution series with total of 10 doses. The assay plates were then incubated for 24 hours at 37° C. under 5% CO2. At the assay endpoint, 20 μL of Nano-Glo HiBiT Lytic Reagent was added to each well and agitated on a plate shaker at 300 rpm for 10 minutes at room temperature. Luminescence was read on PHERAStar FSX Instrument (Is integration time). The data was analyzed by GraphPad Prism and the dose dependent STAT6 degradation was fit using the four-parameter inhibitor vs. response nonlinear regression.
The letter codes for DC50 (nM) include: A (<1 nM): B (1-10 nM); C (>10-100 nM); D (>100-1000 nM); E (>1000 nM); and F (not tested). The letter codes for Dmax (%) include: A (>90%); B (>70-90%); C (>50-70%); D (<50%); and E (not tested).

[2] = target: biotinylated truncated STAT6 (123-632)-avi (Homo sapiens, UniProt P42226); assay: STAT6 HTRF binding assay; conditions: read-out: STAT6 HTRF: Average IC50; HTRF binding, 0.15 nM biotinylated truncated STAT6 (123-632)-avi, 20 nM fluorescein-labeled probe

| SMILES | STAT6 HiBiT degradation Dmax % 24 h [1] | DC50 [1] [nM] | IC50 [2] [µM] |
| --- | --- | --- | --- |
| CN(C)C(=O)c1cc2c(-c3ccc(N4CCN([C@H]5CCN(c6ccc(C7CCC(=O)NC7=O)cc6F)CC5(F)F)CC4)c(F)c3F)cc(C3=CCCN(C(=O)CCn4ccnn4)C3)c(F)c2[nH]1 (some centres unmarked) | A (A (>90%)) | < 1 | < 0.1 |
| CN(C)C(=O)c1cc2c(-c3ccc(C4CCN(c5ccc(C6CCC(=O)NC6=O)c(Cl)c5F)CC4)cc3)cc(C3=CCCN(C(=O)CCn4ccnn4)C3)c(F)c2[nH]1 (centres unmarked) | A (A (>90%)) | < 1 | < 0.1 |
| CN(C)C(=O)c1cc(-c2ccc(C3CCN(c4cccc5c(C6CCC(=O)NC6=O)nn(C)c45)CC3)cc2)c2nc(C3=CCCN(C(=O)CCn4ccnn4)C3)sc2c1 (centres unmarked) | A (A (>90%)) | < 1 | < 0.1 |
| CN(C)C(=O)c1cc2c(-c3ccc(C4CCN(c5ccc(NC6CCC(=O)NC6=O)cc5F)CC4)cc3)cc(C3=CCCN(C(=O)CCn4ccnn4)C3)c(F)c2[nH]1 (centres unmarked) | B (B (>70-90%)) | – | < 0.1 |
| CN(C)C(=O)c1cc2c(-c3ccc(N4CCC(c5ncc(C6CCC(=O)NC6=O)cc5F)CC4)c(F)c3F)cc(C3=CCCN(C(=O)CCn4cccn4)C3)c(F)c2[nH]1 (centres unmarked) | A (A (>90%)) | < 1 | < 0.1 |
| CN(C)C(=O)c1cc2c(-c3cc(F)c(N4CCC(c5ccc(C6CCC(=O)NC6=O)cc5F)CC4)cc3F)cc(C3=CCCN(C(=O)CCn4ccnn4)C3)c(F)c2[nH]1 (centres unmarked) | A (A (>90%)) | < 1 | < 0.1 |
| COc1cc(N2CC3(CCN(c4ccc(-c5cc(C6=CCCN(C(=O)CCn7cccn7)C6)c(F)c6[nH]c(C(=O)N(C)C)cc56)c(F)c4F)CC3)C2)c(F)cc1C(=O)NC1CCC(=O)NC1=O (centres unmarked) | A (A (>90%)) | < 1 | 0.1 to 1 |
| CN(C)C(=O)c1cc2c(-c3ccc(C4CCN(c5ccc(C6CCC(=O)NC6=O)cc5Cl)CC4)cc3)cc(C3=CCCN(C(=O)CCn4ccnn4)C3)c(F)c2[nH]1 (centres unmarked) | A (A (>90%)) | < 1 | < 0.1 |
| Cc1cc(C2CCN(c3cccc4c3C(C)(C)C(=O)N4C3CCC(=O)NC3=O)CC2)ccc1-c1cc(C2=CCCN(C(=O)CCn3cccn3)C2)c(F)c2[nH]c(C(=O)N(C)C)cc12 (centres unmarked) | A (A (>90%)) | < 1 | 0.1 to 1 |
| CN(C)C(=O)c1cc2c(-c3ccc(N4CCN(C5CCN(c6cc(F)c(C7CCC(=O)NC7=O)cc6F)CC5)CC4)c(F)c3F)cc(C3=CCCN(C(=O)CCn4cccn4)C3)c(F)c2[nH]1 (centres unmarked) | A (A (>90%)) | < 1 | < 0.1 |
| CN(C)C(=O)c1cc2c(-c3ccc(C4CCN(c5cc(F)c(C6CCC(=O)NC6=O)cc5F)CC4)cc3)cc(C3=CCCN(C(=O)CCn4ccnn4)C3)c(F)c2[nH]1 (centres unmarked) | A (A (>90%)) | < 1 | < 0.1 |
| CC(=O)N1CCC=C(c2cc3cc(C(=O)N(C)C)cc(-c4ccc(C5CCN(c6cccc7c(C8CCC(=O)NC8=O)nn(C)c67)CC5)cc4)c3n2CC2CC2)C1 (centres unmarked) | B (B (>70-90%)) | 1 to 10 | 1 to 10 |
| Cc1cc(C2CCN(c3ccc(C4CCC(=O)NC4=O)cc3F)CC2)ccc1-c1cc(C(=O)N(C)C)cc2cc(C3=CCCN(C(=O)CCn4ccnn4)C3)n(CC3CC3)c12 (centres unmarked) | A (A (>90%)) | < 1 | < 0.1 |
| Cc1c(C2CCN(c3ccc(C4CCC(=O)NC4=O)cc3F)CC2)cnc(-c2cc(C3=CCCN(C(=O)CCn4cccn4)C3)c(F)c3[nH]c(C(=O)N(C)C)cc23)c1F (centres unmarked) | A (A (>90%)) | < 1 | < 0.1 |
| CN(C)C(=O)c1cc2c(-c3ccc([C@@H]4CCN(C5CCN(c6ccc(C7CCC(=O)NC7=O)cc6F)CC5)CC4(F)F)c(F)c3F)cc(C3=CCCN(C(=O)CCn4cccn4)C3)c(F)c2[nH]1 (some centres unmarked) | A (A (>90%)) | < 1 | < 0.1 |
| CN(C)C(=O)c1cc2c(-c3ccc(C4CCN(c5ccc(C6CCC(=O)NC6=O)cc5F)CC4)c(F)c3F)cc(C3=CCCN(C(=O)CCn4ccnn4)C3)c(F)c2[nH]1 (centres unmarked) | A (A (>90%)) | < 1 | < 0.1 |
| CN(C)C(=O)c1cc(-c2ccc(C3CCN(c4ccc(C5CCC(=O)NC5=O)cc4F)CC3)cc2)c2c(cc(C3=CCCN(C(=O)CCn4ccnn4)C3)n2CC2CC2)c1F (centres unmarked) | B (B (>70-90%)) | 10 to 100 | 0.1 to 1 |

| SMILES | STAT6 HiBiT degradation Dmax % 24 h [1] | DC50 [1] [nM] | IC50 [2] [µM] |
| --- | --- | --- | --- |
| Cc1cc(C2CCN(c3cccc4c3C(C)(C)C(=O)N4C3CCC(=O)NC3=O)CC2)ccc1-c1cc(C2=CCCN(C(=O)CCn3ccnn3)C2)c(F)c2[nH]c(C(=O)N(C)C)cc12 (centres unmarked) | A (A (>90%)) | < 1 | < 0.1 |
| CN(C)C(=O)c1cc(-c2ccc(C3CCN(c4ccc(C5CCC(=O)NC5=O)cc4F)CC3)cc2)c2c(c1)c(F)c(C1=CCCN(C(=O)CCn3ccnn3)C1)n2CC1CC1 (centres unmarked) | A (A (>90%)) | < 1 | < 0.1 |
| CN(C)C(=O)c1cc(-c2ccc(C3CCN(c4ccc(C5CCC(=O)NC5=O)cc4F)CC3)cc2)c2c(c1)cc(C1=CCCN(C(=O)CCn3ccnn3)C1)n2CC1CC1 (centres unmarked) | A (A (>90%)) | < 1 | < 0.1 |
| CN(C)C(=O)c1cc2c(-c3ccc([C@H]4CCN(C5CCN(c6ccc(C7CCC(=O)NC7=O)cc6F)CC5)CC4(F)F)c(F)c3F)cc(C3=CCCN(C(=O)CCn4cccn4)C3)c(F)c2[nH]1 (some centres unmarked) | A (A (>90%)) | < 1 | < 0.1 |
| CN(C)C(=O)c1cc(-c2ccc(N3CCCN(c4ccc(C5CCC(=O)NC5=O)cc4F)CC3)c(F)c2)c2c(c1)cc(C1=CCCN(C(=O)CCn3ccnn3)C1)n2CC1CC1 (centres unmarked) | C (C (>50-70%)) | 1 to 10 | < 0.1 |
| CN(C)C(=O)c1cc2c(-c3ccc(C4CCN(c5ccc([C@@]6(C)CCC(=O)NC6=O)cc5F)CC4)cc3)cc(C3=CCCN(C(=O)CCn4ccnn4)C3)c(F)c2[nH]1 (single isomer, unassigned) | B (B (>70-90%)) | < 1 | < 0.1 |
| CN(C)C(=O)c1cc2c(-c3ccc(C4CCN(CCc5cccc6c5C(C)(C)C(=O)N6C5CCC(=O)NC5=O)CC4)cc3)cc(C3=CCCN(C(=O)CCn4cccn4)C3)c(F)c2[nH]1 (centres unmarked) | A (A (>90%)) | < 1 | < 0.1 |
| CN(C)C(=O)c1cc2c(-c3ccc(C4CCN(CCc5cccc6c5C(C)(C)C(=O)N6C5CCC(=O)NC5=O)CC4)c(F)c3)cc(C3=CCCN(C(=O)CCn4ccnn4)C3)c(F)c2[nH]1 (centres unmarked) | A (A (>90%)) | < 1 | < 0.1 |
| CN(C)C(=O)c1cc2c(-c3cc(F)c(C4CCN(CCc5cccc6c5C(C)(C)C(=O)N6C5CCC(=O)NC5=O)CC4)cc3Cl)cc(C3=CCCN(C(=O)CCn4cccn4)C3)c(F)c2[nH]1 (centres unmarked) | A (A (>90%)) | < 1 | < 0.1 |
| CN(C)C(=O)c1cc2c(-c3cc(F)c(C4CCN(c5ccc(C6CCC(=O)NC6=O)cc5F)CC4)cc3F)cc(C3=CCCN(C(=O)CCn4ccnn4)C3)c(F)c2[nH]1 (centres unmarked) | A (A (>90%)) | < 1 | < 0.1 |
| CN(C)C(=O)c1cc(-c2ccc(CC3CCN(c4ccc(C5CCC(=O)NC5=O)cc4F)CC3)cc2)c2c(c1)cc(C1=CCCN(C(=O)CCn3ccnn3)C1)n2CC1CC1 (centres unmarked) | B (B (>70-90%)) | 1 to 10 | < 0.1 |
| CN(C)C(=O)c1cc2c(-c3ccc(C4CCN(c5cnc(C6CCC(=O)NC6=O)cc5F)CC4)cc3)cc(C3=CCCN(C(=O)CCn4cccn4)C3)c(F)c2[nH]1 (centres unmarked) | A (A (>90%)) | < 1 | < 0.1 |
| CN(C)C(=O)c1cc(-c2ccc(C3CCN(c4ccc(C5CCC(=O)NC5=O)cc4F)CC3)cc2F)c2c(c1)cc(C1=CCCN(C(=O)CCn3ccnn3)C1)n2CC1CC1 (centres unmarked) | A (A (>90%)) | < 1 | < 0.1 |
| CN(C)C(=O)c1cc2c(-c3ccc([C@@H]4CCN(C5CCN(c6ncc(C7CCC(=O)NC7=O)cc6F)CC5)CC4(F)F)c(F)c3F)cc(C3=CCCN(C(=O)CCn4cccn4)C3)c(F)c2[nH]1 (some centres unmarked) | A (A (>90%)) | < 1 | < 0.1 |
| CN(C)C(=O)c1cc(-c2ccc(C3CCN(c4ccc(C5CCC(=O)NC5=O)cc4F)CC3)cc2)c2nc(C3=CCCN(C(=O)CCn4ccnn4)C3)sc2c1 (centres unmarked) | A (A (>90%)) | 1 to 10 | < 0.1 |
| CN(C)C(=O)c1cc2c(-c3cc(F)c(N4CCC(N5CCN(c6ccc(C7CCC(=O)NC7=O)c(F)c6)CC5)CC4)cc3F)cc(C3=CCCN(C(=O)CCn4cccn4)C3)c(F)c2[nH]1 (centres unmarked) | A (A (>90%)) | < 1 | < 0.1 |
| CCN(C)C(=O)c1cc2c(-c3ccc(N4CCN(c5ccc(C6CCC(=O)NC6=O)cc5F)CC4)c(F)c3F)cc(C3=CCCN(C(=O)CCn4ccnn4)C3)c(F)c2[nH]1 (centres unmarked) | A (A (>90%)) | < 1 | < 0.1 |
